Target: MAO B (Homo sapiens, UniProt P27338)
Assay: Inhibition kinetics of MAO B

The chains behind the UniProt entries cited, without tags or fusion partners.
UniProt P27338, whole entry: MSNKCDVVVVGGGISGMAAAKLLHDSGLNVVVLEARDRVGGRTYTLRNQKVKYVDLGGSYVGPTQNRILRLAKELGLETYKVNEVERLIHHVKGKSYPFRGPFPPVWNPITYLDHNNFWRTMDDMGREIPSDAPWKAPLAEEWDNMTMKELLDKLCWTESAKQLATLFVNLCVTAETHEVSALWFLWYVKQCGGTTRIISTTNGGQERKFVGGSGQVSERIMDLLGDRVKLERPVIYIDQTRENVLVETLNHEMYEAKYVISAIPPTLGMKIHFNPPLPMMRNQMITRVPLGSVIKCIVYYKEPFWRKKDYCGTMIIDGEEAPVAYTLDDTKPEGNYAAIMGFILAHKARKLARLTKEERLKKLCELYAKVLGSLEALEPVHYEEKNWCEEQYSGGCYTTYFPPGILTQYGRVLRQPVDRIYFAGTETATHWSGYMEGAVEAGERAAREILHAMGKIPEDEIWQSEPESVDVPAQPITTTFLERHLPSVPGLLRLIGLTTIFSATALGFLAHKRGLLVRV

N[C@@H]1C[C@H]1c1ccccc1 (relative stereo) [Compound 2-PCPA]
inactivation of MAO B: capable of inactivating MAO B

Reference: patent publication US20140343118A1, “METHODS OF TREATMENT USING ARYLCYCLOPROPYLAMINE COMPOUNDS” (Duke University, priority 2013, published 2014)
